Literature values as cited in patent publication US8242148B2 (priority 2005, dated 2012).

Sequences of proteins named here, by UniProt entry; tags and fusion partners are left off. A change or cut given only in a name is not applied to a line headed by its entry.
UniProt Q9QYN8: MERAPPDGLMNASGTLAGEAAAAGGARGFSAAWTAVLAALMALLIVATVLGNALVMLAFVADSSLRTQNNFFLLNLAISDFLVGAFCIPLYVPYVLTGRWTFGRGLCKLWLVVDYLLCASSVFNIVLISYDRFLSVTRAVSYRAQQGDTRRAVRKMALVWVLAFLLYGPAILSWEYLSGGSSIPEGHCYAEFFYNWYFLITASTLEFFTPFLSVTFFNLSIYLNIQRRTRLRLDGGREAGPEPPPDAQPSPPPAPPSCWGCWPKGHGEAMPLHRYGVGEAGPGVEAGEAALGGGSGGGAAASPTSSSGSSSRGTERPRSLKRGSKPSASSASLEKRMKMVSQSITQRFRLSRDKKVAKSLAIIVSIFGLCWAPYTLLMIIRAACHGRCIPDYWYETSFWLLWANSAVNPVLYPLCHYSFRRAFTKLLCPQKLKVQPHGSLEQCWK

Target: T1, H3 receptor (Rattus norvegicus, UniProt Q9QYN8)
T1 construct: In rats, a selective H3 receptor antagonist, ABT-239; host or cells: living rats (prefrontal cortex, hippocampus)
Settings: rats, cited from earlier work

C[C@@H]1CCCN1CCc1cc2cc(-c3ccc(C#N)cc3)ccc2o1 [ABT-239]
Acetylcholine release (prefrontal cortex and hippocampus): enhancement of acetylcholine release
Learning in an inhibitory avoidance model of ADHD: improving learning
